# Laboratory results taken from ChEMBL document CHEMBL1128165, “Quinuclidine-based NK1 antagonists, the role of the benzhydryl” (Bioorg Med Chem Lett, 1995).
# Protein sequences, listed by entry. Tags and fused reporters are not part of them.
# UniProt P25103, whole entry H197A: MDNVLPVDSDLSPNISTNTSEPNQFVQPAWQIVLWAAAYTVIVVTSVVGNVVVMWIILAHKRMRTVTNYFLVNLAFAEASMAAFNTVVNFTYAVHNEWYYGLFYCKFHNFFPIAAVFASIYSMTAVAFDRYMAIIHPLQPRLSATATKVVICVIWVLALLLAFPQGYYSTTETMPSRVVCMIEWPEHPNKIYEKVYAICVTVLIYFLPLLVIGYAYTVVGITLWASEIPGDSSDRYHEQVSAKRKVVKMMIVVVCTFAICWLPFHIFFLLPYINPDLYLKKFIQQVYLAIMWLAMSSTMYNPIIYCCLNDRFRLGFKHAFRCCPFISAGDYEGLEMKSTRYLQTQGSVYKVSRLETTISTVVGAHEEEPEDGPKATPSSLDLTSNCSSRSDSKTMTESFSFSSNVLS
# UniProt P25103, whole entry: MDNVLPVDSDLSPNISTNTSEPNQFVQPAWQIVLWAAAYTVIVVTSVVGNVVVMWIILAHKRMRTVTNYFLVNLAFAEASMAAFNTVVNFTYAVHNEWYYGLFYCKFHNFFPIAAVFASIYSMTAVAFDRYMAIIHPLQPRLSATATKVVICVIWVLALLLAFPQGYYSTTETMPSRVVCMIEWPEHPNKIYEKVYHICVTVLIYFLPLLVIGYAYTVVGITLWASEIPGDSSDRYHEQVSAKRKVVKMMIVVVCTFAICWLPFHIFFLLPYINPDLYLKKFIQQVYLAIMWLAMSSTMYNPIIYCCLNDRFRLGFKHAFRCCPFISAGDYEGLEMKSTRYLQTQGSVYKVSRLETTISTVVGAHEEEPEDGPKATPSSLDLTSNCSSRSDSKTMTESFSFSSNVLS
# Tests used:
# Substance-P receptor [1] = molecular target: Substance-P receptor (Homo sapiens, UniProt P25103, H197A); assay: Binding affinity towards human mutant NK-1 receptor in which His-197 has been replaced by alanine (H197A)
# Substance-P receptor [2] = molecular target: Substance-P receptor (Homo sapiens, UniProt P25103); assay: Binding affinity towards wild type human Wild-type tachykinin receptor 1 expressed in Chinese hamster ovary cells; type: cell-based
Structure (SMILES),IC50 (Substance-P receptor [1]),IC50 (Substance-P receptor [2])
Cc1cc(C)cc(COC2/C(=C\c3ccccc3)N3CCC2CC3)c1 (centres undefined),0.615 µM,0.129 µM
Cc1cc(C)cc(COC2/C(=C/c3ccccc3)N3CCC2CC3)c1 (centres undefined),7.5 µM,8.2 µM
